Literature values in patent US7465549B2 (UCB, S.A., priority 2002, dated 2008).

Chains of the proteins cited; added tags and fusions are not shown.
UniProt Q02563, whole entry: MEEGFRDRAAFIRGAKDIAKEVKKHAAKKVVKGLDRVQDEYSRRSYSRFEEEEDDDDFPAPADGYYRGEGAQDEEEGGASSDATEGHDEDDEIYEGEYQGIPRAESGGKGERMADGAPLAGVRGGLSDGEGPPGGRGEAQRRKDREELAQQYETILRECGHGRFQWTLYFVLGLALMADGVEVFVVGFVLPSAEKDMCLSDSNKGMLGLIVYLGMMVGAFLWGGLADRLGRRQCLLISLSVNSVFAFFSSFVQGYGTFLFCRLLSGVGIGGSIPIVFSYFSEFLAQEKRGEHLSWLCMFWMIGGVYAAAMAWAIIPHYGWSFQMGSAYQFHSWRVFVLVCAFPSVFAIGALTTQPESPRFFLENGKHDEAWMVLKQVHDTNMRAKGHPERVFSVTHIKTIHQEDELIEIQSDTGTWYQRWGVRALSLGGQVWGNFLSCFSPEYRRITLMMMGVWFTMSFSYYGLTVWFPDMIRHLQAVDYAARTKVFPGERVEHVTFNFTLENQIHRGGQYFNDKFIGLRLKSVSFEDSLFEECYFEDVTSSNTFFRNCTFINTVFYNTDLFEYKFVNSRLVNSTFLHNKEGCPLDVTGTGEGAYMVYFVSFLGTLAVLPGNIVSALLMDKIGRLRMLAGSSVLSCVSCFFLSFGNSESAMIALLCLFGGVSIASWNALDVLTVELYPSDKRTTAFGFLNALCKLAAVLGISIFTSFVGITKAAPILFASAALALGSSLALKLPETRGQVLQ

Target: levetiracetam binding site (LBS) (Rattus norvegicus, UniProt Q02563)
Conditions: rat brain LBS; cited from earlier work

In the case of t-butylbicyclophosphorothionate, the “displacement of LEV binding” value is listed as “do not displace LEV binding”.
